Laboratory results reported in patent publication US8399480B2, “Hydroxymethyl pyrrolidines as beta 3 adrenergic receptor agonists” (Merck Sharp & Dohme Corp., priority 2008, dated 2013).

The chains behind the UniProt entries cited, without tags or fusion partners.
UniProt P13945, whole entry: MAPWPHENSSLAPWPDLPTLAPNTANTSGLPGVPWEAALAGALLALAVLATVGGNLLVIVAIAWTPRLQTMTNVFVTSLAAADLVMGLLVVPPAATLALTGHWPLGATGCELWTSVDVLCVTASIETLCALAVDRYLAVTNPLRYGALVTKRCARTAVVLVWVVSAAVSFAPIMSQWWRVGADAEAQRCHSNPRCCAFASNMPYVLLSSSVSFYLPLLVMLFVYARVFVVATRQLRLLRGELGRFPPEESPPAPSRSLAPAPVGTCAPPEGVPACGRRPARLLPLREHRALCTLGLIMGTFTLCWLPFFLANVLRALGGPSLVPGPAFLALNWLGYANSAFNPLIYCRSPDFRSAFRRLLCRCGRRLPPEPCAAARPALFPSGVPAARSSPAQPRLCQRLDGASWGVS

Target: human β3 adrenergic receptor (Homo sapiens, UniProt P13945)
Assay: Functional assay: cAMP production (LANCE TR-FRET) in CHO cells stably transfected with cloned β3 adrenergic receptor
Assay type: cell-based
Details: read-out: Human β3 Functional; Table 5

EC50 [nM]	Compound
1 to 10	Cc1nnc(C(C)C(=O)Nc2ccc(C[C@@H]3CC[C@H]([C@H](O)c4ccccc4)N3)cc2)[nH]1 (single isomer, unassigned)
1 to 10	CC(C(=O)Nc1ccc(C[C@@H]2CC[C@H]([C@H](O)c3ccccc3)N2)cc1)n1cnccc1=O (single isomer, unassigned)
